ASM inhibitor: blocks human secretory acid sphingomyelinase; P17405; placental ASM, HMU-PC fluorogenic substrate, 60 min; Potency, µM (titrated, usually from 57.5 µM), without a hit: at the top dose activity change, negative = inhibition, usual class: inhibitors; actives 0.006% (n = 340,000); active = well fitted inhibition curve with a large enough effect; inconclusive = small, poorly fitted or top-dose-only effect; inactive = no such curve, though single readings can be large or run the other way
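Fluorescence read-out (Ex 386 nm, Em 447 nm) after stopping the reaction at pH 10. Enzyme: ASM from human placenta; substrate HMU-PC0, 9 uM final; 60 min, 37 °C. Compound preincubation 10 min, ambient temperature.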
Rango-impB inh: Rango-importin beta binding inhibition | Potency, µM (series often up to 92.2 µM), inactives show at the top dose inhibition of complex formation | Rango CFP/YFP FRET sensor + importin beta, 45 min | actives 0.031% (n = 340,000) | AID 540263;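 also: 0% = DMSO wells and 100% = buffer wells lacking importin beta; nearly all actives have a fitted effect of over 15% in size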
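Inhibition scored from the CFP 486 nm/YFP 530 nm FRET ratio 45 min after adding 0.125 microM importin beta to 50 nM Rango biosensor preincubated 5 min with compound (room temperature, PBS with DTT, Tween-20, BSA). No-importin wells as positive control.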
Rango release inh: prevents RanGTP from dissociating the Rango-importin beta complex; O95149+P62826; Biochemical FRET Rango-importin beta, RanGTP-induced dissociation; Potency, µM (doses to about 46.1 µM), for the others: at the top dose activity change, negative = inhibition; actives 0.071% (n = 340,000); AID 540253; also: % of control where 0% means no effect; nearly all actives have a fitted effect of over 45% in size
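Rango FRET biosensor (snurportin-1 IBB flanked by N-terminal EYFP and C-terminal CFP10) at 0.1 uM, with 0.25 uM importin beta in PBS, 1mM DTT, 0.02% Tween-20, 0.1% BSA. 0.6 uM Ran, 2mM GTP and 0.2 uM RCC1 were then added for 45 min at room temperature. Inhibition read as loss of FRET rise.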
gsp agonist: gsp mutant agonism; Potency, µM (top dose mostly 76.9 µM), without a hit: at the highest dose activation (cAMP increase), most hits filed as activators; actives 0.13% (n = 340,000); AID 624287; gsp mutant cells, cAMP HTRF, 30 min; active = well fitted activation curve with a large enough effect; inconclusive = small, poorly fitted or top-dose-only effect, or another doubt; inactive = no such curve, though single readings can be large or run the other way; cell line not stated here;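 also: phosphodiesterase inhibitor Ro 20-1724 added with compounds to block cAMP breakdown; nearly all actives have a fitted effect of over 60% in size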
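Cells in DMEM/10% FBS with G418 were pretreated with compounds in DMSO plus […] (300 uM stock) for 30 min at 37C. cAMP was measured by HTRF (cAMP-d2 plus anti-cAMP antibody-K) after 30 min at room temperature.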
gsp antagonist: antagonizes gsp, the McCune-Albright syndrome mutation. gsp-mutant cells, cAMP HTRF, 30 min. Potency, µM (doses to about 76.9 µM), without a hit: at the top dose activity change, negative = inhibition, most hits filed as inhibitors. actives 0.4% (n = 340,000); calls by dose curve; cell line not stated here;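 also: intracellular cAMP measured with PDE inhibitor Ro 20-1724 present during compound exposure; % is scaled to controls: 0 for no effect and ±100 for the full control effect; nearly all actives have a fitted effect of over 65% in size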
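Cells in G418 medium, seeded 16-24 h, 37C; buffer exchange to DPBS + 1 mM CaCl2, 0.5 mM MgCl2, 0.05% BSA; cpds in DMSO + […] (300 uM stock), 30 min 37C; HTRF cAMP detection.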
* marks the source's active call; other numbers are inactive results; ? = inconclusive; . = no result; [ ] = another dose, or the depositor's remark. An excerpt weighted towards active compounds, which were near 0.67% of everything screened. Unless noted, calls follow the shape of the full dose curve. Potency is read from the fitted curve at half-maximal effect.

[1] Cc1ccsc1C(=O)NNC(=O)c1ccc(NS(=O)(=O)c2cccs2)cc1
[2] Cc1ccc2[nH]c(O)c(N=NC(=O)c3ccc(NS(=O)(=O)c4cccs4)cc3)c2c1
[3] Cc1cccc2c(N=NC(=O)c3ccc(NS(=O)(=O)c4cccs4)cc3)c(O)[nH]c12
[4] CC(=O)Nc1cccc(C(=O)NNC(=O)c2ccc(NS(=O)(=O)c3cccs3)cc2)c1
[5] Cc1ccc2sc(-c3ccc(NC(=O)/C=C\C(=O)O)cc3)nc2c1
[6] O=C(CN1C(=O)S/C(=C\c2ccccn2)C1=O)Nc1ccccc1
[7] O=C(CN1C(=O)S/C(=C\c2cc(Cl)c(O)c(Cl)c2)C1=O)Nc1ccccc1
[8] Cc1cccc(NC(=O)CN2C(=O)S/C(=C\c3cc(C)n(C)c3C)C2=O)c1
[9] COc1ccccc1N1C(=O)S/C(=C\c2cc(C)n(C)c2C)C1=O
[10] COc1ccccc1N1C(=O)S/C(=C\c2ccc(C)s2)C1=O
compound no.,1,2,3,4,5,6,7,8,9,10
ASM inhibitor,-4%,-1%,-5%,.,174%,5%,-1%,15%,18%,-1%
Rango-impB inh,?,4%,-3%,.,?,3%,?,?,?,?
Rango release inh,-5%,2%,2%,.,?,-14%,?,23µM*,18µM*,2%
gsp agonist,-58%,-145%,-3%,-69%,-9%[15.4 µM],17%,-32%,24%,-52%,-37%
gsp antagonist,11µM*,-33%,25µM*,.,.,3%,40µM*,-2%,-14%,2%

[11] Cc1c(/C=C2\SC(=O)N(CC(=O)Nc3ccc4c(c3)OCO4)C2=O)c2ccccc2n1C
[12] Cc1ccc(NC(=O)CN2C(=O)S/C(=C\c3cc(C)n(C)c3C)C2=O)cc1
[13] COC(=O)CCN1CCC2CC1c1cc(N3CCCCC3)ccc12 (stereo not drawn)
[14] COc1ccc(S(=O)(=O)N2CCN(C(=O)CSC(=S)N3CCCC3)CC2)cc1
[15] CCCc1nc(SCC(=O)Nc2nc3c(s2)CCCC3)c2ccccc2n1
[16] CCc1nnc(NC(=O)CSc2nc(-c3ccccc3)nc3ccccc23)s1
[17] CCc1nnc(NC(=O)CSc2nnc(-c3cc4ccccc4cc3O)n2CC)s1
[18] CCc1nnc(NC(=O)CSc2nnc(-c3ccccc3O)n2CC)s1
[19] CCc1nnc(NC(=O)CSc2nc(C3CCCCC3)nc3ccccc23)s1
[20] CCc1nc(SCC(=O)Nc2nc3c(s2)CCCC3)c2ccccc2n1
compound no.,11,12,13,14,15,16,17,18,19,20
ASM inhibitor,-7%,35%,.,4%,-14%,0%,1%,4%,0%,-12%
Rango-impB inh,?,?,.,-1%,0%,-1%,-2%,4%,7%,-1%
Rango release inh,26µM*[inhibitor],?,.,-13%,-10%,1%,-11%,14%,0%,0%
gsp agonist,0%,6%,-4%,-14%,?,7.9µM*,4%,13%,?,18µM*
gsp antagonist,4%,-2%,.,-6%,1%,19%,28µM*,-7%,2%,20%

[21] CC(=O)OCCCN1c2ccccc2Nc2nnc(-c3ccccc3)cc21
[22] CC(NC(=O)CN(C)Cc1cccc(Cl)c1)c1ccccc1 (stereo not drawn)
[23] CCOC(=O)COn1c(=O)c(-c2ccco2)[n+]([O-])c2ccccc21
[24] O=C1C2CC=CCC2C(=O)N1c1ccc(NCCc2ccc(O)cc2)c([N+](=O)[O-])c1 (stereo not drawn)
[25] CN(Cc1cccc2cnccc12)C(=O)c1cc(COc2ccc(F)cc2F)on1
[26] CCc1ccc(CN(C)C(=O)c2cc(COc3cccc4cnccc34)on2)cc1
[27] O=C(c1cc(COc2c(F)cccc2F)on1)N1CCC(c2ccccc2Cl)C1 (stereo not drawn)
[28] O=C(c1cc(COc2cccc3cnccc23)on1)N1CCC(c2ccccc2Cl)C1 (stereo not drawn)
[29] CCOC(=O)CSc1cc(=O)n(CC)c2ccccc12
[30] CN(CCCNC(=O)CSc1cc(=O)n(C)c2cc(Cl)ccc12)Cc1ccccc1
compound no.,21,22,23,24,25,26,27,28,29,30
ASM inhibitor,-2%,-2%[11.5 µM],18%,-30%,0%,-10%,-1%,-12%,-3%,-1%
Rango-impB inh,3%,-2%,?,4%,0%,0%,-1%,0%,1%,5%
Rango release inh,9%,-8%,18µM*,1%,-3%,7%,-11%,-9%,0%,-22%
gsp agonist,-11%,2%[15.4 µM],-8%,10%[15.4 µM],-11%,-27%,-4%[15.4 µM],-9%,?,18µM*
gsp antagonist,40µM*,11µM*,2%,32µM*,-30%,35µM*,-13%,28µM*,?,0%

[31] CCOC(=O)CSc1cc(=O)n(C)c2cc(Cl)ccc12
[32] Cn1c(=O)cc(SCC(=O)NCCC2=CCCCC2)c2ccc(Cl)cc21
[33] O=C1NC(=S)S/C1=C/c1ccc(Oc2cnccn2)cc1
[34] COc1cccc2c1C(=O)c1c(O)c3c(c(O)c1C2=O)CC(O)(C(=O)CO)CC3OC1CC(N(C)C)C(O)C(C)O1 (stereo not drawn)
[35] COc1cccc2c1C(=O)c1c(O)c3c(c(O)c1C2=O)C[C@@](O)(C(=O)CO)C[C@@H]3O[C@H]1C[C@H](N)[C@@H](O)[C@H](C)O1
[36] O=C(NC(C(=O)N/N=C/c1cc([N+](=O)[O-])ccc1O)c1n[nH]c(=O)c2ccccc12)c1ccccc1 (stereo not drawn)
[37] Cc1c(NC(=O)C(C)OC(=O)/C=C/c2ccccc2)c(=O)n(-c2ccccc2)n1C (stereo not drawn)
[38] COc1cc(/C=C/C(=O)OC(C)C(=O)Nc2c(C)n(C)n(-c3ccccc3)c2=O)ccc1O (stereo not drawn)
[39] COc1ccc(C(=O)NCC(=O)N=Nc2c(O)n(Cc3ccccc3)c3ccccc23)cc1OC
[40] COc1ccc(C(=O)NCC(=O)N=Nc2c(O)n(C)c3ccccc23)cc1OC
compound no.,31,32,33,34,35,36,37,38,39,40
ASM inhibitor,-1%,4%,-3%,-14%,-18%,?,0%,27%,-15%,-4%
Rango-impB inh,6%,3%,1%,58µM*,17%,?,-1%,?,0%,?
Rango release inh,-2%,23%,-5%,20%,-16%,16µM*,0%,23µM*,-9%,7%
gsp agonist,16µM*,-2%,1%[15.4 µM],24%,.,13%[15.4 µM],8%,0%[15.4 µM],10%[15.4 µM],-5%
gsp antagonist,-19%,5%,11µM*,-32%,?,-15%,8%,4%,11µM*,-2%

[41] COc1ccc(CN2C(=O)c3cccnc3C2=O)cc1S(=O)(=O)N1CC(C)Oc2ccccc21 (stereo not drawn)
[42] CCCNS(=O)(=O)c1cc(CN2C(=O)c3cccnc3C2=O)ccc1OC
[43] COc1ccc(CN2C(=O)c3cccnc3C2=O)cc1S(=O)(=O)NC(C)C
[44] COc1ccc(CNS(=O)(=O)c2cc(CN3C(=O)c4cccnc4C3=O)ccc2OC)cc1
compound no.,41,42,43,44
ASM inhibitor,0%,1%,6%,-2%
Rango-impB inh,2%,1%,2%,-1%
Rango release inh,22%,-1%,5%,-5%
gsp agonist,?,32µM*,22µM*,11µM*
gsp antagonist,12%,3%,20%,15%

Reformatted with values under each structure: 4 of the compounds above.
The line under a structure holds: ASM inhibitor	Rango-impB inh	Rango release inh	gsp agonist	gsp antagonist
(41) COc1ccc(CN2C(=O)c3cccnc3C2=O)cc1S(=O)(=O)N1CC(C)Oc2ccccc21 (stereo not drawn)
    0%	2%	22%	?	12%
(42) CCCNS(=O)(=O)c1cc(CN2C(=O)c3cccnc3C2=O)ccc1OC
    1%	1%	-1%	32µM*	3%
(43) COc1ccc(CN2C(=O)c3cccnc3C2=O)cc1S(=O)(=O)NC(C)C
    6%	2%	5%	22µM*	20%
(44) COc1ccc(CNS(=O)(=O)c2cc(CN3C(=O)c4cccnc4C3=O)ccc2OC)cc1
    -2%	-1%	-5%	11µM*	15%
